Assay results from publication PMC7615677, “DNDI-6174, a preclinical candidate for visceral leishmaniasis that targets the cytochrome bc1 complex” (Science translational medicine, 2023).
Like-named read-outs stand apart in the source and are kept apart here.

Experiment: Compartmental PK modelling and repeat-dose simulation
Settings: mice, simulated; for AUC: read-out: AUC24 ss
Protocol: To support pharmacokinetic/pharmacodynamic (PKPD) analysis, data in mice and hamsters were also analyzed by compartmental modeling using Phoenix WinNonlin (version 8.2; Certara, Princeton, NJ). For each dose level, an extravascular dosing, single compartment disposition model was fit to the combined Day 1/Day 5 repeat dose plasma data. The model was parameterized with a single volume term (V/F), and with first order absorption (K01) and elimination (K10) rate constants. Initial values for the parameter estimates were obtained by fitting of the model to the Day 1 data at the lowest dose level only, and the same initial values were used across the dose range. Experimental data used in model fitting were the mean concentration-time profiles and the average dose administered to each group. The weighting scheme (1/Y2 for mouse and 1/Y for hamster) was selected based on goodness of fit of the peak region of the experimental profiles. Parameter estimates obtained through fitting were used to simulate full repeat-dose plasma concentration-time profiles with both once-daily and twice-daily (dosing at […]) administration at each dose level and treatment duration used in the efficacy studies.

[1] = mouse, plasma, po, 6.25 mg/kg, 6.25 mg/kg bid, 5 days
[2] = mouse, plasma, po, 6.25 mg/kg, 6.25 mg/kg bid, 10 days

**Q.** Which AUC24 ss (6.25 mg/kg bid, 5 days) does the source give for Cc1[nH]c2nc(N)nc(C)c2c1-c1ccc(C#N)c2c1OCO2 [DNDI-6174] here?
**A.** 26100 ng·h/mL

**Q.** What about the “AUC24 ss (unbound)” value (6.25 mg/kg bid, 5 days) of the same compound?
**A.** 3130 ng·h/mL

**Q.** And the Cav ss (6.25 mg/kg bid, 5 days)?
**A.** 1090 ng/mL

**Q.** What about the “Cav ss (unbound)” value (6.25 mg/kg bid, 5 days) of the same compound?
**A.** 130 ng/mL

**Q.** What about the Cmax (6.25 mg/kg bid, 5 days) of the same compound?
**A.** 2330 ng/mL

**Q.** And the “Cmax (unbound)” value (6.25 mg/kg bid, 5 days)?
**A.** 279 ng/mL

**Q.** What about the Cmin (6.25 mg/kg bid, 5 days) of the same compound?
**A.** 102 ng/mL

**Q.** What about the “Cmin (unbound)” value (6.25 mg/kg bid, 5 days) of the same compound?
**A.** 12 ng/mL

**Q.** What about the “Cum AUC” value (6.25 mg/kg bid, 5 days) of the same compound?
**A.** 131000 ng·h/mL

**Q.** And the “Cum AUC (unbound)” value (6.25 mg/kg bid, 5 days)?
**A.** 15700 ng·h/mL

**Q.** What about the “AUC24 ss (unbound)” value (6.25 mg/kg bid, 10 days) of the same compound?
**A.** 3130 ng·h/mL

**Q.** And the Cav ss (6.25 mg/kg bid, 10 days)?
**A.** 1090 ng/mL

**Q.** What about the “Cav ss (unbound)” value (6.25 mg/kg bid, 10 days) of the same compound?
**A.** 130 ng/mL

**Q.** And the “Cmax (unbound)” value (6.25 mg/kg bid, 10 days)?
**A.** 279 ng/mL

**Q.** And the Cmin (6.25 mg/kg bid, 10 days)?
**A.** 102 ng/mL

**Q.** What about the “Cmin (unbound)” value (6.25 mg/kg bid, 10 days) of the same compound?
**A.** 12 ng/mL

**Q.** What about the “Cum AUC (unbound)” value (6.25 mg/kg bid, 10 days) of the same compound?
**A.** 31300 ng·h/mL

**Q.** And the AUC24 ss (25 mg/kg bid, 5 days)?
**A.** 131000 ng·h/mL

**Q.** And the Cmax at 5 days [1]?
**A.** 2330 ng/mL

**Q.** And the AUC [1]?
**A.** 26100 ng·h/mL

**Q.** And the AUC at 5 days (mouse, plasma, po, 6.25 mg/kg, 6.25 mg/kg bid, 5 days, read-out: Cum AUC)?
**A.** 131000 ng·h/mL

**Q.** What about the Cmax at 10 days [2] of the same compound?
**A.** 2330 ng/mL

**Q.** And the AUC [2]?
**A.** 26100 ng·h/mL

**Q.** And the AUC at 10 days (mouse, plasma, po, 6.25 mg/kg, 6.25 mg/kg bid, 10 days, read-out: Cum AUC)?
**A.** 261000 ng·h/mL

**Q.** And the AUC (mouse, plasma, po, 25 mg/kg, 25 mg/kg bid, 5 days)?
**A.** 131000 ng·h/mL
